Protein sequences, listed by entry. Tags and fused reporters are not part of them.
ATP-dependent Clp protease proteolytic subunit (Bacillus subtilis (strain 168)), P80244, UniProt P80244, whole entry, looked up: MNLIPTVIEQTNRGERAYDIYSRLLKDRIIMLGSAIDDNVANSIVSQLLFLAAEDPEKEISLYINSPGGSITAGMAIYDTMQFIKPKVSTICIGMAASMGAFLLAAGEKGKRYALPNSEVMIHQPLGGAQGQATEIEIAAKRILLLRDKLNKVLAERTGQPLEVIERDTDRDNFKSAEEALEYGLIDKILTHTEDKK

# Sampled rows, rich in hits. Any-hit rate of the full collection: about 2.5%.
# rTrxR1 inhibitor – blocks rat thioredoxin reductase 1. O89049. recombinant rTrxR1, NADPH fluorescence consumption, selenite substrate. Potency, µM (titrated, usually from 114 µM), without a hit: top-dose activity change, negative = inhibition, usual class: inhibitors. 390,000 compounds, 1% hits. AID 588453; further: potency means the concentration at half of the fitted maximal effect; on the % scale 0 is the no-effect control and ±100 the full control effect; nearly all actives have a fitted effect of over 65% in size
#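 Rat TrxR1 (90 nM in the dispensed reagent) was pre-reduced with 400 uM NADPH for 5 min at room temperature, then incubated with compound for 15 min. After 400 uM selenite was added, NADPH fluorescence (Ex 340/Em 450 nm) was followed for 8 min.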
# Apoferritin bind – candidate novel general anesthetic via apoferritin binding | apoferritin/1-aminoanthracene competitive binding, fluorescence | 350,000 compounds, 0.074% hits | AID 485281 | Potency, µM (top dose mostly 77.5 µM), for the others: at the highest dose activity change, negative = displacement, hits mostly inhibitors | P02791; further: potency means the concentration at half of the fitted maximal effect; on the % scale 0 is the no-effect control and ±100 the full control effect; nearly all actives have a fitted effect of over 20% in size
#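 10 uM apoferritin + 50% sat. 1-AMA, PBS; cpd 10 min RT; Ex380/Em535 endpoint; normalized to free probe vs complex; 4-param Hill fit; propofol titration as pos. ctrl.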
# miR-21 reporter – raises the signal of a miR-21 reporter | HeLa miR-21 FLuc reporter, luciferase, 48 h | Potency, µM (highest dose often 38.3 µM), for inactives: at the highest dose reporter change, positive = more light | 340,000 tested, under 10 active | AID 2288; active = well fitted rising curve with a large enough effect; inconclusive = small, poorly fitted or top-dose-only effect; inactive = no such curve, though single readings can be large or run the other way;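 also: % of control where 0% means no effect; miR-21 action dims this reporter so a rising signal means less miR-21 action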
#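 Luminescence from a firefly luciferase reporter carrying a miR-21 binding site downstream, stably expressed under a CMV promoter in HeLa cells that make miR-21 endogenously, reports miRNA modulation after 48 h compound exposure up to approximately 40uM final.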
# TrxR1 substrate – rat thioredoxin reductase 1 substrate activity; O89049; purified TrxR1 substrate turnover, NADPH consumption readout; Potency, µM (top dose mostly 114 µM), inactives show at the top dose activity change, negative = substrate turnover; 390,000 compounds, 0.01% hits; AID 588456; further: potency means the concentration at half of the fitted maximal effect; on the % scale 0 is the no-effect control and ±100 the full control effect; nearly all actives have a fitted effect of over 50% in size
#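 Rat TrxR1, dispensed at 90 nM, was prereduced with 400 uM NADPH (final) for 5 min at ~22 deg C, then incubated with compound 15 min before 400 uM selenite. A first-read NADPH fluorescence drop versus no-compound background flagged substrates.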
# ClpP mod – qHTS Assay for Activators of ClpP | Potency, µM (highest dose often 57.5 µM), for inactives: top-dose activity change, negative = active | purified B. subtilis ClpP, FRET peptide cleavage, 20 min | AID 651965, 2013 | 340,000 compounds, 1.9% hits | ATP-dependent Clp protease proteolytic subunit (Bacillus subtilis (strain 168)), P80244; active means well fitted falling curve with a large enough effect; inconclusive means small, poorly fitted or top-dose-only effect; inactive means no such curve, though single readings can be large or run the other way; further: potency means the concentration at half of the fitted maximal effect; the source files actives as falling curves though it sought activators and does not explain the sign; nearly all actives have a fitted effect of over 65% in size
#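 ClpP 10 microg/mL final, pH 8 Tris/KCl buffer with BSA, glycerol, Tween-20; compound pinned in; FRET-FV substrate; RT 20 min; Ex320/Em430; ΔFRET vs ADEP 5.8 microM, DMSO, no enzyme.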
# * = called active by the depositor; ? = inconclusive; nt = not tested or not shown; [ ] = dose if it differs, or a comment. Unless noted, the call rests on the fitted dose curve; in most records, active means well fitted curve in the direction sought with a large enough effect; inconclusive means small, poorly fitted or top-dose-only effect, or another doubt; inactive means no such curve, though single readings can be large; an effect the other way counts as inactive or inconclusive.
no.	SMILES	rTrxR1 inhibitor	Apoferritin bind	miR-21 reporter	TrxR1 substrate	ClpP mod
1	C[C@H](NC(=O)CNC(=O)[C@@H](NC(=O)[C@H](Cc1ccccc1)NC(=O)CNC(=O)CNC(=O)[C@@H](N)Cc1ccccc1)[C@@H](C)O)C(=O)N[C@@H](CCCN=C(N)N)C(=O)N[C@@H](CCCCN)C(=O)N[C@@H](CO)C(=O)N[C@@H](C)C(=O)N[C@@H](CCCN=C(N)N)C(=O)N[C@@H](CCCCN)C(N)=O	nt	4%	nt	nt	nt
2	Cc1ccc2c(c1)C(=O)OC(C(=O)Nc1ccc(C(=O)O)cc1)C2 (stereo not drawn)	8%	57%	-3%	-1%	-3%
3	N#Cc1nc(-c2ccco2)oc1N1CCN(C(c2ccccc2)c2ccccc2)CC1	37%	-15%	-7%	35%	6.3µM*
4	CC1CC(C)CN(c2oc(-c3ccco3)nc2C#N)C1 (stereo not drawn)	25%	6%	-9%	91%	11%
5	N#Cc1nc(-c2cccs2)oc1N1CCN(Cc2ccccc2)CC1	94%	80%	-13%	129%	25µM*
6	N#Cc1nc(-c2ccco2)oc1N1CCc2ccccc2C1	-11%	-22%	-35%	86%	14µM*
7	N#Cc1nc(-c2ccco2)oc1N1CCCC1	-14%	-2%	-5%	231%	?
8	N#Cc1nc(COc2ccccc2)oc1N1CCN(Cc2ccccc2)CC1	-4%[11.4 µM]	-6%	-3%	4%[11.4 µM]	0%
9	N#Cc1nc(-c2ccco2)oc1N1CCN(c2cccc(Cl)c2)CC1	16%	64%	-8%	4%	32µM*
10	CCN1CCN(c2oc(-c3ccco3)nc2C#N)CC1	5%[57.1 µM]	-8%	-1%	40%	-5%
11	COc1ccc(-c2nc3sc(CCNC(=O)c4ccc(C(C)(C)C)cc4)c(C)n3n2)cc1	7%[57.1 µM]	8%	-39%	-10%[57.1 µM]	-1%
12	COc1ccc(C2CC(O)(c3ccccc3)Oc3c(C)ccc(C(C)C)c32)cc1 (stereo not drawn)	0%	0%	nt	-13%	nt
13	CCOc1ccc(-c2cc(C)n3nc(C(N)=O)cc3n2)cc1	-14%	129%	11%	132%	16µM*
14	CC(C)(C)c1cc(C(=O)N/N=C/c2ccc(O)cc2)n(-c2ccccc2)n1	-11%	-13%	-2%	-15%	32µM*
15	Cc1cccc(CNC(=O)c2ccc(N3Cc4ccccc4Oc4ncccc43)s2)c1	49%[57.1 µM]	534%	9%	30%[57.1 µM]	28µM*
16	COc1ccccc1NC(=O)C1=C(C)Nc2nc(SCc3ccccc3)nn2C1c1cccs1 (stereo not drawn)	27%[2.29 µM]	10%	18%	-5%	26%
17	Cc1ccc(C)n1-c1sccc1C(=O)O	50µM*	9%	0%	-7%	1%
18	Cc1ccc(C)n1-c1sc2c(c1C(=O)O)CCCC2	5%[57.1 µM]	-12%	-3%	-3%[57.1 µM]	nt
19	CCN(CC)/[N+]([O-])=N/OCOC(=O)c1ccccc1OC(C)=O	14%	nt	nt	3%	nt
20	CCOC(=O)c1nc2cc3n(c(CC(C)C)c-2c1C)CC(C)=C3C	-22%[57.1 µM]	-15%	-5%	33%[57.1 µM]	28µM*
21	Cc1cc(C)cc(Nc2ccc(C(=O)O)cc2N)c1	-3%	3%	-64%	232%	28µM*
22	COC(=O)c1cc2oc3ccccc3c2n1Cc1c(F)cccc1Cl	26%	-12%	-7%	17%	2.5µM*
23	COC(=O)c1cc2oc3ccccc3c2n1Cc1ccccc1Cl	46%	3%	-5%	58%	4%
24	Cc1ccc(N2C(=O)CC(Nc3ccc(Cl)c(S(=O)(=O)N(C)C)c3)C2=O)c(C)c1 (stereo not drawn)	50µM*	-18%	-2%	5%	-1%
25	CC(C)NC(=O)CCCc1cn(C)c2ccccc12	8%[57.1 µM]	-6%	-6%	16%[57.1 µM]	32µM*

# Carrying on:
no.	SMILES	rTrxR1 inhibitor	Apoferritin bind	miR-21 reporter	TrxR1 substrate	ClpP mod
26	Cc1ccc(CNC(=O)CSc2ccsc2[N+](=O)[O-])cc1	50µM*	-14%	-46%	-11%	nt
27	Cc1ccc(-c2nnc3ccccc3c2C(=O)Nc2cccc(C(F)(F)F)c2)cc1	-4%[57.1 µM]	-7%	-41%	-7%[57.1 µM]	-1%
28	Nc1c(C(=O)Nc2ccc3c(c2)OCCO3)nnn1Cc1cccc(Cl)c1	0%[57.1 µM]	nt	nt	-4%[57.1 µM]	nt
29	Nc1c(C(=O)Nc2ccc3c(c2)OCCO3)nnn1Cc1ccc(F)cc1	-4%	nt	nt	15%	11µM*
30	Cc1cc(C)c(S(=O)(=O)/N=C2/C=C(Sc3ncn[nH]3)C(=O)c3ccccc32)cc1C	?	-15%	?	14µM*	11%
31	CC(=O)N1CCC(N(Cc2ccco2)C(=O)Nc2ccc(C)c(Cl)c2)CC1	-5%	-4%	-5%	-3%	-3%
32	Cc1cn2c(=O)cc(COc3ccc(NC(=O)c4ccc(C(C)(C)C)cc4)cc3)nc2s1	15%	2%	-17%	0%	-2%
33	Cc1ccc2c(c1)c1c(n2C)C(C(N)=O)CCC1 (stereo not drawn)	-7%	2%	4%	6%	?
34	Cc1ccc2c(c1)c1c(n2C)-c2[nH]ncc2CC1	16%	-3%	-43%	43%	13µM*
35	Cc1cc(C)cc(C(=O)N2CCCCCC2)c1	16%	13µM*	-2%	7%	-1%
36	Cc1cc(C(=O)N2CCCCCC2)cs1	-5%	-20%	-10%	-8%	-1%
37	Cc1sc2ncn(CC(=O)N3CCN(c4ccccc4F)CC3)c(=O)c2c1S(=O)(=O)N1CCC(C)CC1	15%[2.29 µM]	-18%	-2%	-12%	-2%
38	COc1cccc(CNC(=O)CSc2nc(=O)n(Cc3ccncc3)c3c2CCC3)c1	6%	nt	nt	3%	13µM*
39	CCOC(=O)C1(C)C=C(Nc2ccccc2)C(=O)N1c1ccccc1 (stereo not drawn)	21%[11.4 µM]	-3%	-1%	3%[11.4 µM]	-7%
40	CCOC(=O)C1(C)C=C(Nc2ccc(NC(C)=O)cc2)C(=O)N1c1ccc(NC(C)=O)cc1 (stereo not drawn)	-11%[57.1 µM]	-5%	-2%	2%[57.1 µM]	25µM*
41	COc1ccc(C2Nc3ccccc3-n3c(-c4ccccc4)c4c(=O)n(C)c(=O)n(C)c4c32)cc1 (stereo not drawn)	17%	54%	13%	-4%	?
42	CCn1c(=O)cc(SCC(=O)NCc2ccccc2OC)c2ccccc21	27%	-16%	24%	7%	-2%
43	COc1ccc(N/C(=C(/C(Cl)=C(Cl)Cl)[N+](=O)[O-])n2nnc3ccccc32)cc1	nt	108%	3%	nt	nt
44	Cc1ccccc1N/C(=C(/C(Cl)=C(Cl)Cl)[N+](=O)[O-])n1nnc2ccccc21	10µM*	-23%	-2%	4%[57.1 µM]	-2%
45	CCOC(=O)C1CCCN(C(=O)c2ccc3c(c2)N(Cc2ccc(Cl)cc2)C(=O)c2ccccc2S3=O)C1 (stereo not drawn)	5%	-18%	3%	-5%	-2%
46	N#Cc1ccccc1Cn1c(=O)n(CCCC(=O)NCc2ccccc2Cl)c(=O)c2ccccc21	-14%	45%	-1%	15%	-3%

# Complete entries, looked up by structure:
# Record of `CCOC(=O)C1(C)C=C(Nc2ccccc2)C(=O)N1c1ccccc1` (stereo not drawn) : rTrxR1 inhibitor: 21%[11.4 µM]; Apoferritin bind: -3%; miR-21 reporter: -1%; TrxR1 substrate: 3%[11.4 µM]; ClpP mod: -7%
# Record of `N#Cc1ccccc1Cn1c(=O)n(CCCC(=O)NCc2ccccc2Cl)c(=O)c2ccccc21` : rTrxR1 inhibitor: -14%; Apoferritin bind: 45%; miR-21 reporter: -1%; TrxR1 substrate: 15%; ClpP mod: -3%
# Record of `Cc1ccc2c(c1)c1c(n2C)C(C(N)=O)CCC1` (stereo not drawn) : rTrxR1 inhibitor: -7%; Apoferritin bind: 2%; miR-21 reporter: 4%; TrxR1 substrate: 6%; ClpP mod: ?

# Source: PubChem BioAssay (National Center for Advancing Translational Sciences (NCATS))
